Values quoted from earlier work, collected in US7629368B2, “Nitroderivatives as drugs for diseases having an inflammatory basis” (Nicox S.A., priority 2000, dated 2009).

Columns and labels:
[1] = test system: chronic hepatitis B; settings: cited from earlier work
[2] = test system: chronic hepatitis C; settings: patients; cited from earlier work

Substance: interferon α-2b: compound used for the treatment of chronic hepatitis B and C
- recidivism after interruption of the treatment ([1]; patients with chronic hepatitis B or C, interruption of the treatment): 50-80%
- cases of hepatitis B that are satisfactory ([1]; patients): 10%
- recovery of the cases affected by chronic hepatitis B ([1]; patients): 30-40%
- recovery of the cases affected by chronic hepatitis C [2]: 20-25%
